# Biological target: T1, Methylated-DNA--protein-cysteine methyltransferase (Homo sapiens, UniProt P16455)
# T1 sequence (P16455 whole entry): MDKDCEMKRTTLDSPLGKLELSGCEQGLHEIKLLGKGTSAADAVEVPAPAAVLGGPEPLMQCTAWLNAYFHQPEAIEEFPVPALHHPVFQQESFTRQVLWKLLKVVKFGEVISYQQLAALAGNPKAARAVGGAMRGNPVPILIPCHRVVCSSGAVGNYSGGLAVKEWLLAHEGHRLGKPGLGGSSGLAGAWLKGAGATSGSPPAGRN
smiles,measurement,value
Nc1nc(OCc2ccccc2)c2[nH]cnc2n1 [6-O-BENZYLGUANINE],IC50,39 nM

# Source: ChEMBL document CHEMBL2169860, “Design of a hypoxia-activated prodrug inhibitor of O6-alkylguanine-DNA alkyltransferase” (Bioorg Med Chem Lett, 2012)
